Experimental data from US5602100A, “Dermorphin analogs having pharmacological activity” (priority 1988, dated 1997).

The chains behind the UniProt entries cited, without tags or fusion partners. Where a name states a change or a piece, a line headed by the entry shows the natural chain unless it says otherwise.
UniProt P33533, whole entry: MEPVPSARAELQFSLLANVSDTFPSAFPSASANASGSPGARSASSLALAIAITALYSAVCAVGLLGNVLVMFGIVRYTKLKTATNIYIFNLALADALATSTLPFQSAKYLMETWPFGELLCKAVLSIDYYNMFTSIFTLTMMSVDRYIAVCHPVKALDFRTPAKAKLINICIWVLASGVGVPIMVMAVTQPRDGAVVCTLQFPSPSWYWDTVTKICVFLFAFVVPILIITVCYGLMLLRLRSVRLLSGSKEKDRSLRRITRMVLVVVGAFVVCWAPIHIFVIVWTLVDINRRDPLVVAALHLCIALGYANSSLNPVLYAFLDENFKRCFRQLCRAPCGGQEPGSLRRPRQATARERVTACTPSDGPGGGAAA

Legend:
δ-opioid receptor = molecular target: T1, δ-opioid receptor (Rattus norvegicus, UniProt P33533); format: binding; details: read-out: [3H]HSLET Ki^δ
T1 construct: displacement of the radioligands from the rat brain membrane preparations; from tissue; host or cells: rat brain membrane preparations

guinea pig ileum (GPI) = format: cell-based
mouse vas deferens (MVD) = format: cell-based

In the case of “H-Tyr-D-Ala-Gly-Phe(NMe)-Gly-ol [DAGO, reference compound]”, the Ki (δ-opioid receptor) is reported as 1280 nM, the GPI relative potency (guinea pig ileum (GPI)) is reported as 8.69 ± 1.14 and the MVD relative potency (mouse vas deferens (MVD)) is reported as 0.0120 ± 0.0034.
